According to US20260116921A1, “PEPTIDE INHIBITORS OF INTERLEUKIN-23 RECEPTOR AND THEIR USE TO TREAT INFLAMMATORY DISEASES” (priority 2018, published 2026):

Molecular target: T1, IL-23R (Homo sapiens, UniProt Q5VWK5)
T1 sequence (Q5VWK5 24-629): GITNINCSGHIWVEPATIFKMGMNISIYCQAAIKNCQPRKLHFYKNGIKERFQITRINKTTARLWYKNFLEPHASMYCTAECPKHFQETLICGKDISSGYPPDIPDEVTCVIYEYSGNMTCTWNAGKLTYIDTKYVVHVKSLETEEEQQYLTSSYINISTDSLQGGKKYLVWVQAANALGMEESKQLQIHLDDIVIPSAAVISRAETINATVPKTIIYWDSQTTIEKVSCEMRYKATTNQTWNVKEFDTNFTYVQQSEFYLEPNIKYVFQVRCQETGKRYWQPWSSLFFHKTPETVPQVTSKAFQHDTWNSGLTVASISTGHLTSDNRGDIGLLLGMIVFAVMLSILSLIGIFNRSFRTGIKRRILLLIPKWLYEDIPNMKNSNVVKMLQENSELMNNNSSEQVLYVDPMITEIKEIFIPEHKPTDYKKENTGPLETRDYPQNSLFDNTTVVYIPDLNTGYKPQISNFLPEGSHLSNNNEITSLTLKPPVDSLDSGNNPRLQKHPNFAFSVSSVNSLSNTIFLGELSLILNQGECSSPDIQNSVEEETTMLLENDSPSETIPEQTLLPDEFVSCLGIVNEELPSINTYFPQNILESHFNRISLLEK
Assay: DB cells IL23R pSTAT3 cell assay (pStat3 HTRF)
Assay type: cell-based
Text: Human ELISA indicates the IL23-IL23R competitive binding assay described below, Rat ELISA indicates the rat IL-23R competitive binding ELISA assay described below, and pStat3HTRF indicates the DB cells IL-23R pSTAT3 cell assay described below. The peptides depicted in Table E1 are cyclized via a disulfide bridge formed between two Pen residues in these peptides. The peptides depicted in Table E2 are cyclized via a thioether bond between the indicated amino acid residues. Table E2 provides an illustrative structure depicting thioether cyclization, which is indicated in the table by the term “cyclo,” with the cyclic region bracketed immediately following the term “cyclo.” For certain peptides, the residue Abu is present where indicated, whereas in other embodiments, e.g., those related to the non-cyclized form, the Abu may be referred to as a hSer(Cl) or homoSer residue.
DB Cells IL23R pSTAT3 Cell Assay
IL-23 plays a central role in supporting and maintaining Th17 differentiation in vivo. […] Changes in phospho-STAT3 levels in the cell lysates were detected using the Cisbio HTRF pSTAT3 (Tyr705) Cellular Assay Kit (Cisbio #62AT3PEH), according to manufacturer's Two Plate Assay protocol.

In the case of CC(=O)NCCCC[C@@H]1NC(=O)[C@H](Cc2c[nH]c3c(C)cccc23)NC(=O)[C@H]([C@@H](C)O)NC(=O)[C@H](CC(N)=O)NC(=O)[C@@H](NC(C)=O)C(C)(C)SSC(C)(C)[C@@H](C(=O)N[C@@H](Cc2ccc(OCCN)cc2)C(=O)N[C@@H](Cc2ccc3ccccc3c2)C(=O)N[C@@](C)(CCCCN)C(=O)N[C@@H](CCCCNC(C)=O)C(=O)N[C@@H](CC(N)=O)C(=O)N[C@@H](Cc2c[nH]cn2)C(N)=O)NC1=O [compound 248], the IC50 is reported as < 1 nM.
